Our source for the IC50 values is patent US10065948B2, “Histone deacetylase inhibitors and compositions and methods of use thereof” (CHDI Foundation, Inc., priority 2014, dated 2018).

Sequences of proteins named here, by UniProt entry; tags and fusion partners are left off. Residues count along the entry.
UniProt P56524, 648-1032: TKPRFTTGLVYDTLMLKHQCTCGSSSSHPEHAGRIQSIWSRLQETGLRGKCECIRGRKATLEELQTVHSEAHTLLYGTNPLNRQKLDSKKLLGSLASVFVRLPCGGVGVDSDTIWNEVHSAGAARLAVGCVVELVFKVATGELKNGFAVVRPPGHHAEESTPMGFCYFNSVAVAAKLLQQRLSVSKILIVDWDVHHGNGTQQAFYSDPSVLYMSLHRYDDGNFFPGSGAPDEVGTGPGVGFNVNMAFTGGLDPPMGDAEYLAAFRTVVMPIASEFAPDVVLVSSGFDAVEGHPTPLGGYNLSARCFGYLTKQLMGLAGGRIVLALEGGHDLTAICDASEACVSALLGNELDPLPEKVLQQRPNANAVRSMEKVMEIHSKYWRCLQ

The experiment deals with Histone Deacetylase 4 (HDAC4) catalytic domain (Homo sapiens (Human), UniProt P56524). The experiment can be described thus: Biochemical HDAC inhibition assay, fluorogenic substrate Boc-Lys(Tfa)-AMC. Here is the method:
The potency of compounds is quantified by measuring the Histone Deacetylase 4 (HDAC4) catalytic domain enzymatic activity using the fluorogenic substrate, Boc-Lys(Tfa)-AMC. The substrate is deacetylated to Boc-Lys-AMC by HDAC4. Cleavage by trypsin results in the release of the fluorophore AMC from the deacetylated substrate. The fluorescence of the sample is directly related to the histone deacetylase activity in the sample.
Stocks of 60 μL aliquots of the 10 mM compound in DMSO are prepared and stored at −20° C. From one stock aliquot of each compound to be tested and the reference compound, a 16-point serial dilution is prepared according to Table 1 using a 125 μL 16-channel Matrix multi-channel pipette (Matrix Technologies Ltd).
2 μL (200×) of each diluted solution and each control (full activity: 100% DMSO alone or full inhibition 1 mM) is stamped into V-bottomed polypropylene 384-well compound plates using either the Bravo (384-well head from Agilent) or 12.5 μL 16-channel Matrix multi-channel pipette (Matrix Technologies Ltd). Each well with the 200× compound solution is diluted 1:20 by the addition of 38 μL assay buffer+DMSO (10.5% DMSO, 45 mM Tris-HCl, 123 mM NaCl, 2.4 mM KCl, and 0.9 mM MgCl2 at pH 8.0 and equilibrated to room temperature).
The HDAC4 catalytic domain enzyme is human catalytic domain HDAC4 protein (amino acids 648-1032) with a C-terminal 6× histidine tag, produced by BioFocus. A working solution of enzyme is prepared from a 500 μg/mL stock aliquot of HDAC4 catalytic domain (thawed on ice) diluted to 0.2 μg/mL with assay buffer (50 mM Tris-HCl, 137 mM NaCl, 2.7 mM KCl, and 1 mM MgCl2 at pH 8 and equilibrated to room temperature) just prior to the addition of the enzyme to the assay.
5× (50 μM) substrate is prepared just prior to the addition to the assay. A 1 mM substrate stock is made by diluting a 100 mM Boc-Lys(Tfa)-AMC in DMSO solution 1:100 by adding it drop-wise to assay buffer (equilibrated to room temperature) while vortexing at slow speed to prevent precipitation. The 5× substrate is prepared by diluting the 1 mM substrate solution 1:20 by adding it drop-wise to assay buffer (equilibrated to room temperature) while vortexing at slow speed to prevent precipitation.
3× (30 μM) Developer/Stop Solution is prepared just prior to addition to the plate by diluting a stock solution of 10 mM reference compound 1:333 in 25 mg/mL trypsin (PAA Laboratories Ltd.) equilibrated to room temperature.
5 μL of each solution of 1:20 diluted compound from above is transferred to a clear bottomed, black, 384-well assay plate using the Bravo or the Janus (384-well MDT head from Perkin Elmer). Using a 16-channel Matrix multi-channel pipette, 35 μL of the working solution of HDAC4 catalytic domain enzyme (0.2 μg/mL in assay buffer) is transferred to the assay plate. […] The assay plate is then shaken for two minutes on an orbital shaker at 900 rpm (rotations per minute). Next the plate is incubated for 15 minutes at 37° C. The reaction is stopped by adding 25 μL of 3× (30 μM) developer/stop solution to the assay plates using either the Bravo, Janus or a 16-channel Matrix multi-channel pipette. Assay plates are then shaken for 5 minutes on an orbital shaker at 1200 rpm. Next, the assay plates are incubated at 37° C. for 1 hour in a tissue culture incubator. Finally, the fluorescence is measured (Excitation: 355 nm, Emission: 460 nm) using PerkinElmer EnVision in top read mode.

A word on the IC50: it is the midpoint of a concentration-inhibition curve. The low end stands for higher potency, the high end for lower potency. The compound `Cc1c(F)cccc1C1(C(=O)NO)CCc2nn(-c3ccccc3F)cc2C1` (single isomer, unassigned) [Example 33, E1-(abs)-5-(3-Fluoro-2-methylphenyl)-2-(2-fluorophenyl)-N-hydroxy-4,5,6,7-tetrahydro-2H-indazole-5-carboxamide] showed an IC50 of 710 nM. Regarding `Cc1c(F)cccc1C1(C(=O)NO)CCc2nn(-c3ccccc3F)cc2C1` (single isomer, unassigned) [Example 34, E2-(abs)-5-(3-fluoro-2-methylphenyl)-2-(2-fluorophenyl)-N-hydroxy-4,5,6,7-tetrahydro-2H-indazole-5-carboxamide], it took 19800 nM to reach half-maximal inhibition (IC50).

Consider `Cc1ccccc1-n1ncc2c1CCC(C(=O)NO)(c1cccc(F)c1C)C2` (single isomer, unassigned) [Example 37, E1-(abs)-5-(3-Fluoro-2-methylphenyl)-N-hydroxy-1-(o-tolyl)-4,5,6,7-tetrahydro-1H-indazole-5-carboxamide], for which the IC50 was found to be 1100 nM.

`Cc1ccccc1-n1ncc2c1CCC(C(=O)NO)(c1cccc(F)c1C)C2` (single isomer, unassigned) [Example 38, E2-(abs)-5-(3-fluoro-2-methylphenyl)-N-hydroxy-1-(o-tolyl)-4,5,6,7-tetrahydro-1H-indazole-5-carboxamide]: half-maximal inhibition (IC50) was put at 7900 nM.

As for `Cc1c(F)cccc1C1(C(=O)NO)Cc2nc(-c3cccc(F)c3)sc2C1` (single isomer, unassigned) [Example 64, E1-(abs)-5-(3-Fluoro-2-methylphenyl)-2-(3-fluorophenyl)-N-hydroxy-5,6-dihydro-4H-cyclopenta[d]thiazole-5-carboxamide], the IC50 is 210 nM. The result for `Cc1ccccc1-n1ncc2c1C[C@](C(=O)NO)(c1cccc(F)c1C)C2` [Example 2, (S)-5-(3-Fluoro-2-methylphenyl)-N-hydroxy-1-(o-tolyl)-1,4,5,6-tetrahydrocyclopenta[c]pyrazole-5-carboxamide] reads 23 nM; that for `Cc1c(F)cccc1[C@]1(C(=O)NO)Cc2cnn(-c3ccc(Cl)cc3)c2C1` [Example 8, (S)-1-(4-Chlorophenyl)-5-(3-fluoro-2-methylphenyl)-N-hydroxy-1,4,5,6-tetrahydrocyclopenta[c]pyrazole-5-carboxamide], 112 nM. Take `Cc1c(F)cccc1[C@]1(C(=O)NO)Cc2cnn(-c3c(F)cccc3F)c2C1` [Example 11, (S)-1-(2,6-Difluorophenyl)-5-(3-fluoro-2-methylphenyl)-N-hydroxy-1,4,5,6-tetrahydrocyclopenta[c]pyrazole-5-carboxamide]: half-maximal inhibition (IC50) required 12 nM. In turn, `Cc1cc(F)ccc1-n1ncc2c1C[C@](C(=O)NO)(c1cccc(F)c1C)C2` [Example 22, (S)-5-(3-Fluoro-2-methylphenyl)-1-(4-fluoro-2-methylphenyl)-N-hydroxy-1,4,5,6-tetrahydrocyclopenta[c]pyrazole-5-carboxamide] displayed a concentration for half-maximal inhibition (IC50) of 44 nM. The compound `Cc1cc(F)ccc1-n1cc2c(n1)C[C@](C(=O)NO)(c1cccc(F)c1C)C2` [Example 23, (S)-5-(3-fluoro-2-methylphenyl)-2-(4-fluoro-2-methylphenyl)-N-hydroxy-2,4,5,6-tetrahydrocyclopenta[c]pyrazole-5-carboxamide] registered an IC50 of 197 nM.

In the case of `Cc1c(F)cccc1[C@@]1(C(=O)NO)Cc2cnc(C3CC3)nc2C1` [Example 50, (R)-2-Cyclopropyl-6-(3-fluoro-2-methylphenyl)-N-hydroxy-6,7-dihydro-5H-cyclopenta[d]pyrimidine-6-carboxamide], the concentration for half-maximal inhibition (IC50) is 220 nM.

Compound `Cc1c(F)cccc1[C@]1(C(=O)NO)Cc2cnc(C3CC3)nc2C1` [Example 52, (S)-2-Cyclopropyl-6-(3-fluoro-2-methylphenyl)-N-hydroxy-6,7-dihydro-5H-cyclopenta[d]pyrimidine-6-carboxamide] showed an IC50 of 160 nM. This IC50 and that of the compound before are within 1.5-fold of each other. On to `Cc1c(F)cccc1[C@]1(C(=O)NO)CCc2c1cnn2-c1ccccc1` [Example 54, (R)-4-(3-Fluoro-2-methylphenyl)-N-hydroxy-1-phenyl-1,4,5,6-tetrahydrocyclopenta[c]pyrazole-4-carboxamide], for which the IC50 was determined as 72 nM. The result for `Cc1c(F)cccc1[C@]1(C(=O)NO)Cc2cnc(-c3ccc(F)cc3)nc2C1` [Example 55, (S)-6-(3-Fluoro-2-methylphenyl)-2-(4-fluorophenyl)-N-hydroxy-6,7-dihydro-5H-cyclopenta[d]pyrimidine-6-carboxamide] reads 290 nM; that for `Cc1c(F)cccc1[C@]1(C(=O)NO)Cc2cnc(-c3cccnc3)nc2C1` [Example 60, (S)-6-(3-Fluoro-2-methylphenyl)-N-hydroxy-2-(pyridin-3-yl)-6,7-dihydro-5H-cyclopenta[d]pyrimidine-6-carboxamide], 220 nM.

`Cc1c(F)cccc1[C@@]1(C(=O)NO)Cc2nc(-c3ccc(F)cc3)sc2C1` [Example 66, (R)-5-(3-Fluoro-2-methylphenyl)-2-(4-fluorophenyl)-N-hydroxy-5,6-dihydro-4H-cyclopenta[d]thiazole-5-carboxamide] yielded an IC50 of 81 nM.

`Cc1c(F)cccc1[C@]1(C(=O)NO)Cc2nc(-c3ccc(F)cc3)sc2C1` [Example 67, (S)-5-(3-fluoro-2-methylphenyl)-2-(4-fluorophenyl)-N-hydroxy-5,6-dihydro-4H-cyclopenta[d]thiazole-5-carboxamide] returned an IC50 of 193 nM. Take `Cc1c(F)cccc1[C@]1(C(=O)NO)CCc2nc(C3CC3)sc21` [Example 72, (S)-2-Cyclopropyl-6-(3-fluoro-2-methylphenyl)-N-hydroxy-5,6-dihydro-4H-cyclopenta[d]thiazole-6-carboxamide]: the IC50 was found to be 94 nM. This IC50 lies about 2.1-fold lower than the previous one. For `Cc1c(F)cccc1[C@]1(C(=O)NO)Cc2snc(-c3ccccc3)c2C1` [Example 80, E1-(abs)-5-(3-Fluoro-2-methylphenyl)-N-hydroxy-3-phenyl-5,6-dihydro-4H-cyclopenta[d]isothiazole-5-carboxamide], the IC50 worked out at 79 nM. The IC50 values of the last two compounds are within 1.5-fold of each other. As for `Cc1c(F)cccc1[C@@]1(C(=O)NO)Cc2snc(-c3ccccc3)c2C1` [Example 81, E2-(abs)-5-(3-Fluoro-2-methylphenyl)-N-hydroxy-3-phenyl-5,6-dihydro-4H-cyclopenta[d]isothiazole-5-carboxamide], the IC50 was found to be 9700 nM.

Take `O=C(NO)[C@@]1(c2ccccc2)CCc2ccccc21` [Example 88, E2-(abs)-N-hydroxy-1-phenyl-2,3-dihydro-1H-indene-1-carboxamide]: the IC50 is > 50000 nM. `O=C(NO)C1(c2ccccc2)Cc2ccccc2C1` [Example 89, N-Hydroxy-2-phenyl-2,3-dihydro-1H-indene-2-carboxamide] registered an IC50 of 15300 nM. In turn, `Cc1c(F)cccc1[C@]1(C(=O)NO)Cc2cnn(-c3ccc(F)cc3Cl)c2C1` [Example 90, (S)-1-(2-Chloro-4-fluorophenyl)-5-(3-fluoro-2-methylphenyl)-N-hydroxy-1,4,5,6-tetrahydrocyclopenta[c]pyrazole-5-carboxamide] returned an IC50 of 36 nM. This IC50 lies about 420-fold lower than the previous one.
